{"source": "patent US20030181436A1", "about": "“Treatment for AIDS, HIV, and other related diseases and compounds for use therewith” (priority 2001, published 2003)", "key": {"ACH-2 cells": {"test_system": "ACH-2 cells", "experiment": "ACH-2 assay, compound toxicity by MTS dye reduction", "format": "cell-based", "design": "9′. CC: unit not given here", "settings": "for 9′. CC: exp 2; for % CC: exp 1", "method": "(§1) U1 and ACH-2 cells were obtained from the AIDS Research and Reference Reagent Program and maintained under standard culture conditions in RPMI 1640 supplemented with 10% fetal bovine serum (heat inactivated), supplemented with 2 mM […], 100U/ml penicillin and 100 μg/ml, streptomycin. U1 cells were derived from the histocytic leukemia cell line U937, and contain a single integrated copy (HIV IIIB) […] a cytokine and/or phorbol inducible provirus. ACH-2 cells are derived from the A3.01 T lymphoblastic cell line, and contain 2 copies of the HIV IIIB provirus, however only one is cytokine and/or phorbol inducible. Cultures were maintained in such a way as to ensure exponential growth of the populations. At the time of the assay, cells were collected by centrifugation and counted by hemacytometer. If cell viability by Trypan Blue dye exclusion was less than 70% the assay was terminated. The cells were adjusted to 5×10^4 cells/mL and 100 μL, placed in 96 well plates with 100 μL media containing a final concentration of […] TNFα and the test compound. Cultures were incubated for 3 days and supernatants harvested. Compound toxicity was determined by MTS dye reduction. Virus expression was measured by supernatant reverse transcriptasc activity."}, "U1 cells": {"test_system": "U1 cells", "experiment": "U1 assay, compound toxicity by MTS dye reduction", "format": "cell-based", "method": "as §1"}, "HeLa CD4 LTR β-gal cells": {"test_system": "HeLa CD4 LTR β-gal cells", "experiment": "Cytotoxicity for HeLa CD4 LTR β-gal cells", "method": "At assay termination the assay plates were stained with the soluble tetrazolium-based dye MTS (CellTiter® Reagent, Promega) to determined cell viability and quantify compound toxicity. […] At termination of the assay 20 μL of MTS reagent was added per well. The wells were incubated for 4 h at 37° C., 5% CO2. Adhesive plate scalers were used in place of the lids, the sealed plate was inverted several times to mix the soluble formazan product and the plate was read spectrophotometrically at 490 nm with a 650 nm reference wavelength on a Molecular Devices Vmax plate reader.\nThis cell line represents one of 3 standard models for performing time of addition assays."}, "HeLa CD4 LTR B-gal cells": {"test_system": "HeLa CD4 LTR B-gal cells", "experiment": "Attachment assay, toxicity on sister plates by MTS", "format": "cell-based", "method": "The attachment assay was performed with the HeLa CD4 LTR B-gal cells available from the AIDS Research and Reference Reagent Repository. […] HeLa CD4 LTR B-gal cells express cell surface CD4 and contain an LTR B-galactosidase reporter construct. Upon infection either the Tat protein incorporated into the virion or new Tat produced following virus integration and transcription trans-activate the LTR B-gal reporter, leading to expression of the B-galactosidase enzyme. HeLa CD4 LTR B-gal cells are routinely cultured with the required selection antibiotics and scrended for mycoplasma contamination. Twenty-four h prior to initiation of the assay cells were trypsinized, counted and 1×10^4 cells placed in a 0.2 cm well in media without selection antibiotics. Media was removed and compound media placed on the cells and incubated for 15 to 30 min at 37° C. A known titer of virus was then added to the wells and the incubation continued for 1 h. At the end of the incubation the wells were washed 6 times with media and the culture continued for 48 h. At 48 h the wells were washed one time with PBS and B-galactosidase enzyme expression determined by chemiluminescence per manufacturers instructions (Tropix Gal-screen TM, Tropix, Bedford, Mass.). Compound toxicity was monitored on sister plates using MTS dye reduction. (See Tables 14 through 16 and FIGS. 21 and 22)."}, "[1]": {"test_system": "CEM-SS cells chronically infected with SK-1", "experiment": "Chronically infected CEM/SK-1 cell assay, cell viability by MTS", "format": "cell-based", "method": "Fifty thousand (5.0×104) CEM-SS cells chronically infected with the SK-1 strain of HIV in exponential growth were placed into 0.2 cm wells in a total volume of 200 ul with or without serial dilutions of compound. The chronically infected CEM cells were cultured and the assay performed in RPMI 1640 supplemental with 10% Fetal Bovine Serum (heat inactivated), 2 mM L-glutamine, 100 U/mL penicillin, […] and 10 ug/mL gentamycin. On day 3 cell-free supernatants were collected and cell viability measured by MTS dye reduction. (See Table 13 and FIG. 20)."}}, "data": [{"substance": "Zinc Iodiscorbate [Compound Z]", "values": [{"measurement": "9′. CC", "setting": "ACH-2 cells; 0.00063 μg/ml", "result": 98.0}, {"measurement": "9′. CC", "setting": "ACH-2 cells; 0.002 μg/ml", "result": 93.3}, {"measurement": "9′. CC", "setting": "ACH-2 cells; 0.00626 μg/ml", "result": 96.5}, {"measurement": "9′. CC", "setting": "ACH-2 cells; 0.0625 μg/ml", "result": 89.8}, {"measurement": "% CC", "setting": "ACH-2 cells; 0.00063 μG/Ml", "result": 105.6, "unit": "%"}, {"measurement": "% CC", "setting": "ACH-2 cells; 0.002 μG/Ml [c9]", "result": 104.4, "unit": "%"}, {"measurement": "% CC", "setting": "ACH-2 cells; 0.002 μG/Ml [c11]", "result": 107.6, "unit": "%"}, {"measurement": "% CC", "setting": "ACH-2 cells; 0.00625 μG/Ml", "result": 101.4, "unit": "%"}, {"measurement": "% CC", "setting": "ACH-2 cells; 0.0625 μG/Ml", "result": 97.9, "unit": "%"}, {"measurement": "% CC", "setting": "ACH-2 cells; 0.2 μG/Ml", "result": 99.7, "unit": "%"}, {"measurement": "% CC", "setting": "ACH-2 cells; 0.625 μG/Ml", "result": 93.4, "unit": "%"}, {"measurement": "% CC", "setting": "U1 cells; 0.00063 ug/ml, exp 2", "result": 99.2, "unit": "%"}, {"measurement": "% CC", "setting": "U1 cells; 0.00625 ug/ml, exp 2", "result": 103.6, "unit": "%"}, {"measurement": "% CC", "setting": "U1 cells; 0.02 ug/ml, exp 2", "result": 99.9, "unit": "%"}, {"measurement": "% CC", "setting": "U1 cells; 0.0625 ug/ml, exp 2", "result": 100.7, "unit": "%"}, {"measurement": "% CC", "setting": "U1 cells; 0.2 ug/ml, exp 2", "result": 96.9, "unit": "%"}, {"measurement": "% CC", "setting": "U1 cells; 2 ug/ml, exp 1", "result": 97.7, "unit": "%"}, {"measurement": "% CC", "setting": "U1 cells; 6.25 ug/ml [c4], exp 2", "result": 105.0, "unit": "%"}, {"measurement": "% CC", "setting": "U1 cells; 6.25 ug/ml, exp 1", "result": 93.1, "unit": "%"}, {"measurement": "TC50", "setting": "U1 cells; U1/TNFα, exp 1, Table 3", "result": "IITC5O (ug/ml) = 114"}, {"measurement": "% CC", "setting": "HeLa CD4 LTR β-gal cells; 3.2 μG/mL", "result": 101.1, "unit": "%"}, {"measurement": "% CC", "setting": "HeLa CD4 LTR β-gal cells; 10 μG/mL", "result": 102.8, "unit": "%"}, {"measurement": "% CC", "setting": "HeLa CD4 LTR β-gal cells; 32 μG/mL", "result": 101.7, "unit": "%"}, {"measurement": "TOXICITY VALUES (Cell Titer) MEAN", "setting": "HeLa CD4 LTR β-gal cells; 32 μG/mL", "result": 1.164, "unit": "O. D."}, {"measurement": "% CC", "setting": "HeLa CD4 LTR B-gal cells; 0.32 μG/Ml", "result": 100.0, "unit": "%"}, {"measurement": "% CC", "setting": "HeLa CD4 LTR B-gal cells; 1 μG/Ml", "result": 100.0, "unit": "%"}, {"measurement": "% CC", "setting": "HeLa CD4 LTR B-gal cells; 3.2 μG/Ml", "result": 100.0, "unit": "%"}, {"measurement": "% CC", "setting": "HeLa CD4 LTR B-gal cells; 10 μG/Ml", "result": 100.0, "unit": "%"}, {"measurement": "% CC", "setting": "HeLa CD4 LTR B-gal cells; 32 μG/Ml", "result": 100.0, "unit": "%"}, {"measurement": "% CC", "setting": "HeLa CD4 LTR B-gal cells; 100 μG/Ml", "result": 100.0, "unit": "%"}, {"measurement": "% CC", "setting": "[1]; 0.625 μG/Ml", "result": 99.8, "unit": "%"}, {"measurement": "% CC", "setting": "[1]; 2 μG/Ml", "result": 94.1, "unit": "%"}]}]}
